Results from publication PMC3847553, “Kinetic properties of “dual” orexin receptor antagonists at OX1R and OX2R orexin receptors” (Frontiers in Neuroscience, 2013).

Chains of the proteins cited; added tags and fusions are not shown.
UniProt O43613, whole entry: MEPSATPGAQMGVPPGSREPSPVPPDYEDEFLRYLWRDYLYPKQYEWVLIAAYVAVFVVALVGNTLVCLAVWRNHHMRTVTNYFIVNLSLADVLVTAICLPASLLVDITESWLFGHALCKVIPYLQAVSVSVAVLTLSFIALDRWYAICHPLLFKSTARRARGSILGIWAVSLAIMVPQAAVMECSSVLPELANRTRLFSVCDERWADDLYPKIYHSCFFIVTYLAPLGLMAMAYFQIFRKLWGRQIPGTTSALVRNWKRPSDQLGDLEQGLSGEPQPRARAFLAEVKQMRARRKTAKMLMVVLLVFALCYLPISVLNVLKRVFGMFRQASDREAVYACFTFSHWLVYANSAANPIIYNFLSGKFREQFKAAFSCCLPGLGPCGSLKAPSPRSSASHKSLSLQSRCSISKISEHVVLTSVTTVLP

Assays:
[1] = ref Farkas, 2013; cited from earlier work
[2] = target: human OX1R (Homo sapiens, UniProt O43613); assay: FLIPR orexin A-stimulated calcium accumulation, human OX1R; assay type: cell-based; parameters: expressed in transfected cells; host or cells: CHO; cells from GNF, San Diego; conditions: pKi, CHO cells

SMILES	FDA conclusion on safety [1]	Ki ([2]; antagonist incubation 30 min) [nM]	Ki ([2]; antagonist incubation 1 h) [nM]	Ki ([2]; antagonist incubation 2 h) [nM]	Ki ([2]; antagonist incubation 4 h) [nM]
Cc1ccc(-n2nccn2)c(C(=O)N2CCN(c3nc4cc(Cl)ccc4o3)CC[C@H]2C)c1 [Suvorexant]	not considered safe at doses higher than 20 mg	4.07	1.82	1.78	1.86
CNC(=O)[C@@H](c1ccccc1)N1CCc2cc(OC)c(OC)cc2[C@@H]1CCc1ccc(C(F)(F)F)cc1 [Almorexant]	–	14.5	18.6	17.8	17.8
